{"sequences": {"note": "The chains behind the UniProt entries cited, without tags or fusion partners.", "UniProt P50406, whole entry": "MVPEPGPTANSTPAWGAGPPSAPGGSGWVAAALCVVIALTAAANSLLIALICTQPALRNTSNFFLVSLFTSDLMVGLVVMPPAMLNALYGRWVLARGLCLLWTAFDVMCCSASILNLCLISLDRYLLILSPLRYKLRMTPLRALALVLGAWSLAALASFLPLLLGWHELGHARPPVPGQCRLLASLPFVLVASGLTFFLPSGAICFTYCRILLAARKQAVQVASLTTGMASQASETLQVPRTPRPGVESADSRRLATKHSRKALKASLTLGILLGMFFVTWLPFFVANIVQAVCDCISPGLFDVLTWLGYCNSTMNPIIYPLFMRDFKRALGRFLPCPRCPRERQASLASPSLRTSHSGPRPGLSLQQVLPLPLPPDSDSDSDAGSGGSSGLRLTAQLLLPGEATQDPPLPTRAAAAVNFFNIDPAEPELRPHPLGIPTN"}, "source": "patent US20080275058A1", "about": "“N-Substituted-1H-Quinoline-2,4-Diones, Preparation Method Thereof, And Pharmaceutical Composition Containing The Same” (KOREA RESEARCH INSTITUTE OF CHEMICAL TECHNOLOGY, priority 2005, published 2008)", "origin": "cited, not measured here", "key": {"5-HT6 receptors [1]": {"target": "T1, 5-HT6 receptors (Homo sapiens, UniProt P50406)", "conditions": "read-out: Ki at 5-HT6 receptors; background literature; cited from earlier work"}, "[2]": {"system": "other 5-HT receptors and other receptor/binding sites", "conditions": "background literature; cited from earlier work"}, "5-HT6 receptors [3]": {"target": "T1, 5-HT6 receptors", "conditions": "background literature; cited from earlier work"}, "[4]": {"conditions": "background literature; cited from earlier work"}}}
{"smiles": "COc1ccc(NS(=O)(=O)c2ccc(Br)cc2)cc1N1CCN(C)CC1", "values": [{"measurement": "Ki", "setting": "5-HT6 receptors [1]", "result": 5, "unit": "nM"}, {"measurement": "affinity for 50 other receptor/binding sites", "setting": "[2]", "result": "no measurable affinity"}, {"measurement": "selectivity over 10 other 5-HT receptors", "setting": "[2]", "result": "> 50", "unit": "fold"}, {"measurement": "pKb, antagonist of cAMP accumulation", "setting": "5-HT6 receptors [3]", "result": 7.8}, {"measurement": "brain penetrant", "setting": "[4]", "result": 25, "unit": "%"}, {"measurement": "clearance and bioavailability, in words", "setting": "[4]", "result": "rapid blood clearance resulting in low bioavailability"}]}
